Laboratory results as given in paper PMC9655968, “Synthesis of Novel Bromophenol with Diaryl Methanes—Determination of Their Inhibition Effects on Carbonic Anhydrase and Acetylcholinesterase” (Molecules, 2022).

Protein sequences, listed by entry. Tags and fused reporters are not part of them. Lines headed by an entry give the natural chain unless they say otherwise; changes in a name come on top.
UniProt P00915: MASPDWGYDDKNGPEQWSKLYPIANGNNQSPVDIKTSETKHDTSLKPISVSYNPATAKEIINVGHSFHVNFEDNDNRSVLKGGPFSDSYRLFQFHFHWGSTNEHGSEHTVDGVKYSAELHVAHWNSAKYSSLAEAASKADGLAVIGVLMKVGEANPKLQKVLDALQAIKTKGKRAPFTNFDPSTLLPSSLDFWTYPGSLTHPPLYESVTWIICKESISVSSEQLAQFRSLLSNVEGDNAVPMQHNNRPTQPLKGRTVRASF

Assays:
[1] = target: hCA I (Homo sapiens, UniProt P00915); assay type: biochemical
[2] = target: hCA II (Homo sapiens, UniProt P00918)

## 4-Bromo-5-(2-bromo-4-hydroxybenzyl)benzene-1,2-diol [Compound 19]
[1]; esterase method
  IC50: 31.5 nM
[1]; from Lineweaver-Burk graphs, mean ± SD
  Ki: 20.4 ± 2.92 nM
[2]; read-out: IC50 hCA II, esterase method
  IC50: 27.7 nM
[2]; read-out: Ki hCA II, from Lineweaver-Burk graphs, mean ± SD
  Ki: 15.1 ± 1.07 nM
